The results in this text go back to ChEMBL document CHEMBL4680133, “Novel nitroimidazole derivatives evaluated for their trypanocidal, cytotoxic, and genotoxic activities” (Eur J Med Chem, 2020).

Conditions in all cases: raw264.7, 24 h
Data set [1] concerns RAW264.7. Kind of data set: Genotoxicity in mouse RAW264.7 cells assessed as mitotic index at 0.5 uM measured after 24 hrs by micronucleus test (reference value: 40 to 249).
Data set [2] relates to RAW264.7. Kind of data set: Genotoxicity in mouse RAW264.7 cells assessed as number of micronucleated cells at 0.5 uM measured after 24 hrs by micronucleus test (reference value: 12 to 15).
In data set [3] the test system is RAW264.7. Briefly: Genotoxicity in mouse RAW264.7 cells assessed as survival at 0.5 uM measured after 24 hrs by micronucleus test (reference value: 100%).

On to `CN(N=O)C(=N)N[N+](=O)[O-]`, for which, in data set [1], the Activity index stood at 35. Also, the Activity in data set [2] was determined as 25. Besides, the Survival in data set [3] amounted to 99%.
